## Membrane permeability of cyclic peptides

Source: CycPeptMPDB (Li et al. 2023), which took these values from Lee et al. 2021, doi:10.1021/acs.jmedchem.1c00211.

PAMPA measures passive passage through an artificial lipid membrane. Caco-2: transport across a human colon carcinoma cell monolayer. Permeability is given as log10 of P in cm/s; higher (less negative) is more permeable. A value with < or ≤ is an upper limit. "–" marks a cell with nothing listed here.

| structure (SMILES) | PAMPA (log10 cm/s) | Caco-2 (log10 cm/s) |
|---|---|---|
| CCC[C@@H]1NC(=O)[C@H](CC(C)C)N(C)C(=O)[C@H](CC(C)C)N(C)C(=O)[C@H](CC(C)C)N(C)C(=O)[C@H](CC(C)C)N(C)C(=O)[C@@H](C)NC(=O)[C@H](CCC(N)=O)NC(=O)[C@H](CC(C)C)N(C)C(=O)[C@H](C(C)C)NC(=O)[C@H](CC(C)C)N(C)C(=O)CN(C)C1=O | < -8.40 | -5.99 |
| CCC[C@@H]1NC(=O)[C@H](CC(C)C)N(C)C(=O)[C@H](C(C)C)N(C)C(=O)[C@H](CC(C)C)N(C)C(=O)[C@H](CC(C)C)N(C)C(=O)[C@@H](C)NC(=O)[C@H](CCC(N)=O)NC(=O)[C@H](CC(C)C)N(C)C(=O)[C@H](C(C)C)NC(=O)[C@H](CC(C)C)N(C)C(=O)CN(C)C1=O | – | -6.29 |

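Conditions beyond the assay type are not listed; see the original paper. The list need not hold all peptides of the study. Peptides that the database sets to -10, its floor, are left out.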